# Values quoted from earlier work, collected in patent publication US10196361B2, “Sodium salt of uric acid transporter inhibitor and crystalline form thereof” (Jiangsu Hengrui Medicine Co., Ltd., priority 2015, dated 2019).
# Sequences of proteins named here, by UniProt entry; tags and fusion partners are left off. A change or cut given only in a name is not applied to a line headed by its entry.
# UniProt Q96S37: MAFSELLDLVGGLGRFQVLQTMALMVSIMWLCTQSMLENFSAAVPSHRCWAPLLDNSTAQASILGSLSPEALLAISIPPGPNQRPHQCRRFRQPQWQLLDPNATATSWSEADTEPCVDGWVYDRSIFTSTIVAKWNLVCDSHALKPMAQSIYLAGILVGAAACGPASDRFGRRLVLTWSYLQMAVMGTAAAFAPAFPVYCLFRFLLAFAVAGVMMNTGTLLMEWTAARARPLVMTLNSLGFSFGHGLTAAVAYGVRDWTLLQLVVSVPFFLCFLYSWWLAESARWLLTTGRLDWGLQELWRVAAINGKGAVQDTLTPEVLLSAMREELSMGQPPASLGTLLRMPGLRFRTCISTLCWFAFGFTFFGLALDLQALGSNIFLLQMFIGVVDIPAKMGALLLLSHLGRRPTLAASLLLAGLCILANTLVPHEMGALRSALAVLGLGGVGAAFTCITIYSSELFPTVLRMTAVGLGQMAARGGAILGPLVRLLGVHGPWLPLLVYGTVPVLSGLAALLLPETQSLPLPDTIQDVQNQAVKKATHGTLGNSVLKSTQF
# Biological target: uric acid transporter URAT1 (Homo sapiens, UniProt Q96S37)
# Settings: read-out: IC50 against uric acid transporter URAT1; cited from earlier work
compound,measurement,value
O=C(O)CSc1nnc(Br)n1-c1ccc(C2CC2)c2ccccc12 [RDEA-594],IC50,~7 µM
